Measurements: US10568884B2, “Compounds and compositions as protein kinase inhibitors” (Array BioPharma, Inc., priority 2009, dated 2020)

Tested on: A375 melanoma cell line (B-Raf V600E)
Test: A375 Cellular Proliferation Assay (A375 CP)
Assay type: cell-based
Conditions: Homo sapiens, A-375, 48 h; A375-luc cells, 2 days
Method: A375-luc cells engineered to express luciferase are plated to 384-well white clear bottom plates as 1,500 cells/50 μl/well in DMEM containing 10% FBS. Compounds of the invention dissolved in 100% DMSO at appropriate concentrations are transferred to the cells by a robotic Pin Tool (100 nl). The cells are incubated for 2 days at […], then 25 μl of BrightGlo™ is added to each well and the plates are read by luminescence.

COC(=O)N[C@@H](C)CNc1nccc(-c2cn(C(C)C)nc2-c2cc(F)cc(NS(=O)(=O)C3CC3)c2F)n1 [Compound 24, methyl N-[(2S)-1-({4-[3-(3-cyclopropanesulfonamido-2,5-difluorophenyl)-1-(propan-2-yl)-1H-pyrazol-4-yl]pyrimidin-2-yl}amino)propan-2-yl]carbamate]
IC50: 0.023 µM
